Test results: US9181187B2, “Therapeutic agent for urinary excretion disorder” (ONO PHARMACEUTICAL CO., LTD., priority 2007, dated 2015)

The chains behind the UniProt entries cited, without tags or fusion partners. Where a name states a change or a piece, a line headed by the entry shows the natural chain unless it says otherwise.
UniProt P35375: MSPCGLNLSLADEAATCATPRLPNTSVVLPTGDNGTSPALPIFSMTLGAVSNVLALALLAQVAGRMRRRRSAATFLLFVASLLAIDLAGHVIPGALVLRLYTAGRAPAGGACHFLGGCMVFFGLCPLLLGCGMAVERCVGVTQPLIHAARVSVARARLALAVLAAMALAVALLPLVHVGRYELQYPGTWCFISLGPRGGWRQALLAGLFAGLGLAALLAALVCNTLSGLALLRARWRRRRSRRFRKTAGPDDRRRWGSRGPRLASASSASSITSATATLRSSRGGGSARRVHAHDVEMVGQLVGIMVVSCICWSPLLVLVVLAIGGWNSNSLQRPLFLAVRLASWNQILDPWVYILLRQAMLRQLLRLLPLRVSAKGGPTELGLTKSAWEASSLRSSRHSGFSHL

Molecular target: mouse EP1 receptor (Mus musculus (Mouse), UniProt P35375)
Assay: Measurement of EP1 Antagonist Activity (inhibition of PGE2-induced increase in intracellular calcium)
Assay type: cell-based
Conditions: cells expressing mouse EP1 receptor; increase in intracellular calcium induced by PGE2 (100 nM)
Procedure: The cells expressing mouse EP1 receptor were seeded at 10^4 cells/well in 96-well plates and cultured for 2 days with 10% Fetal Bovine Serum (FBS)/alpha Modified Eagle Medium (αMEM) in the incubator (37° C., 5% CO2). The cells were washed with phosphate buffer, and load buffer (10% FBS/αMEM containing Fura2/AM (5 μM), indomethacin (20 μM) and probenecid (2.5 mM)) was then added to each well and cells were left standing for 1 hour. Load buffer of each well was discarded and assay buffer (Hank's Balanced Salt Solution (HBSS) containing indomethacin (2.5 mM), probenecid (2.5 mM), HEPES-NaOH (10 mM) and 0.1% (w/v) Bovine Serum Albumin (BSA)) was added to each well and plates were left at room temperature in a dark room for 1 hour. Afterwards, compounds of the present invention (10 μL) or PGE2 (10 μL) prepared with assay buffer was added to each well and intracellular calcium concentrations were measured using a Fluorescence Drug Screening System (FDSS-4000, Hamamatsu Photonics K.K.). Changes in ratio of fluorescent intensity at 500 nm in cells exposed to alternating 2 excitation wavelengths was monitored as changes in intracellular calcium concentrations.
IC50 values were calculated based on the response inhibition rate of increase in intracellular calcium concentrations induced by PGE2 (100 nM) and was used as an index of EP1 antagonistic activity.

IC50: 9.3 nM
SMILES: Cc1csc(S(=O)(=O)N(CC(C)C)c2cc3c(cc2OCc2ccc(C(=O)O)cc2)CCC3)n1 [Compound B, 4-[6-[N-isobutyl-N-(4-methyl-2-thiazolylsulfonyl)amino]indan-5-yloxymethyl]benzoic acid]
